The experiment has as its target human truncated cGAS enzyme (147-522 human cGAS) (Homo sapiens (Human), UniProt Q8N884). Nature of the experiment: Quantification of cGAS protein inhibition (cGAMP formation measured by LC-MS/MS). It is filed as biochemical. To be noted: reported for the potential mixture of co-existing tautomers and/or racemates. The procedure:
A reagent buffer was prepared in filtered and autoclaved water according to the following: • 50 mM Tris-buffer pH 7.5 (1 M Tris-buffer pH 7.5, Invitrogen, Cat. No. 15567-027); • 50 mM NaCl (5 M NaCl, Sodium Chloride Solution, Sigma, 59222C-); • 5 mM MgCl2 (1 M MgCl2, Sigma, M1028); • 0.1 mM ZnCl2 (Zinc Chloride [7646-85-7], powder, Cell Culture Tested, Sigma, Z-0152); and • 0.001% Tween 20 (TWEEN 20, Sigma Aldrich, P1379-).
A buffer for the cGAS enzyme was prepared in filtered and autoclaved water according to the following: • 50 mM Tris-buffer pH 7.5; • 5 mM MgCl2; and • 0.001% Tween 20.
Compounds were dispensed to a 386 well plate. […]
The concentration of cGAMP was measured on a LC-MS/MS system consisting of a THERMO Dionex Ultimate LC system with a high pressure pump, an autosampler, a column heating compartment (Reinach, Switzerland) and a SCIEX Triple Quad 5500 (Framingham, MA, USA) mass spectrometer for detection. […] The MS parameters were optimized based on the properties of the compounds to be detected and run in positive multi-reaction mode (MRM) based on the mass transitions. […] All data were analyzed with Excel; and the dose response curves were generated using the auto fitting function of XLfit. The IC50 was determined by plotting the cGAMP concentration ratio (cGAMP divided by the internal standard [^15Ns]-2′3′-cGAMP) versus the concentration of compound.

By UniProt entry, the sequences of proteins in these tests, tags left out. Residues count along the entry.
UniProt Q8N884, 147-522: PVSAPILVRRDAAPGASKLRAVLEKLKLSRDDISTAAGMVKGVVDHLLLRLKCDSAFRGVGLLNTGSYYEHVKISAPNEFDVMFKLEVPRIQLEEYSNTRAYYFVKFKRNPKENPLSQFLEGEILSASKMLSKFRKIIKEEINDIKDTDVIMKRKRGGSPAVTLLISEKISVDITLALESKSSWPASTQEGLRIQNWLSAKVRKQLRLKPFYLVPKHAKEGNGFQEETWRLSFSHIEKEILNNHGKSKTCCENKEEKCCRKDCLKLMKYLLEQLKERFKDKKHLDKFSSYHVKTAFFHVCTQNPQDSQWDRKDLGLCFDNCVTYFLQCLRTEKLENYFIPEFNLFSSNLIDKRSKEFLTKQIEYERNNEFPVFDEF

Data on one compound can be found in patent US12404261B2, “Compounds and compositions for treating conditions associated with cGAS” (Novartis AG, priority 2020, dated 2025).

Structures are written as SMILES.

In general, IC50 refers to the midpoint of a concentration-inhibition curve. On to `COc1cc2c(-c3cn[nH]c3)c(-c3nnc(C(C)N(C)C)[nH]3)[nH]c2c(F)c1Cl` (stereo not shown) [Example 79, 1-(5-(6-chloro-7-fluoro-5-methoxy-3-(1H-pyrazol-4-yl)-1H-indol-2-yl)-4H-1,2,4-triazol-3-yl)-N,N-dimethylethan-1-amine], for which the IC50 is 30 nM.
